Test results: patent publication US10959968B2, “Methods for treating c-Met-dependent cancers” (Board of Supervisors of Louisiana State University and …, priority 2016, dated 2021)

System: MDA-MB-231/GFP human breast cancer cells
Experiment: Orthotopic breast cancer xenograft in athymic nude mice
Type: in vivo

COc1cc(CCOC(=O)/C=C/c2cc(OC)c(O)c(OC)c2)ccc1O [Compound 8, (E)-4-hydroxy-3-methoxyph-ethyl 3-(4-hydroxy-3,5-dimethoxyphenyl) acrylate]
body weight (10 mg/kg ip, 3×/week, listed as HVS): No significant change; also recorded: without adversely affecting
overt signs of toxicity (31 injected doses, 10 mg/kg): did not cause any overt signs of toxicity
p-c Met levels in isolated tumor tissues (Western blot, 10 mg/kg): relatively lower levels

Entries after “also recorded” stand apart in the source; their conditions may differ.
